The values that follow are results of earlier work, collected in US20080287669A1, “METHODS AND COMPOSITIONS FOR IDENTIFYING COMPOUNDS USEFUL IN NUCLEIC ACID PURIFICATION” (priority 2007, published 2008).

The conditions of the data set: Table 1, soluble organic solvents.

As to hexylene glycol, the “Dielectric Constant (DC)” value is given as 23.4.
